# Measurements reported in patent publication US6670364B2, “Antagonists of MCP-1 function and methods of use thereof” (Telik, Inc., priority 2001, dated 2003).
# Protein sequences, listed by entry. Tags and fused reporters are not part of them. Residues count along the entry.
# UniProt P13500, 24-99 limits assumed: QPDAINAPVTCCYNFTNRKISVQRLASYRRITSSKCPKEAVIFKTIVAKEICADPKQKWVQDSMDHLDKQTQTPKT
# Target: hMCP-1 (Homo sapiens, UniProt P13500)
# Experiment: Inhibition of MCP-1-induced chemotaxis (48-well chamber, Example 21)
# Conditions: read-out: IC50 (μM), MCP-1-induced chemotaxis; THP-1 cells, 2.5 nM hMCP-1, 48-well chamber, 2 hr; tested form: hydrochloride
# Procedure: A 48-well microchemotaxis chamber with a 5 μm-pore size, PVP-coated polycarbonate filter membrane (Neuro Probe Inc., Cabin John, Md.) was used for testing. Compounds were prepared as 10 mM stock solution in DMSO. THP-1 cells were washed with RPMI 1640 medium supplemented with 0.5% BSA and 25 mM HEPES, pH 7.4, and suspended at a density of 4×10^6 cells/mL in the same medium. A 150 μL aliquot of this suspension was treated with an equal volume of test compound solution and the mixture incubated at 37° C. for 15 min. The lower chamber was loaded with 26 μL of a 2.5 nM solution of hMCP-1 (PeproTech) in medium. The filter membrane was placed over the lower chamber, followed by a silicon rubber gasket and the upper chamber. A 50 μL aliquot of the THP-1 cell suspension containing the test compound was added to the upper chamber and the assembly incubated in a 5% CO2 atmosphere at 37+ C. for 2 hr. The chamber was then disassembled and the cells remaining on the upper surface of the filter were scrapped off with a rubber scrapper. The filter was fixed with methanol, stained with Diff-Quik solution, and mounted on a slide glass. The cells that had migrated across the filter onto the lower surface were then counted by microscopic observation.
row,Compound,IC50
1,Cc1nn(C)c2ncc(C(=O)NC(=O)Nc3ccc(F)c(C(F)(F)F)c3)c(N3CCN(Cc4ccccc4)CC3)c12,2 µM
2,Cc1nn(C)c2ncc(C(=O)NC(=O)Nc3ccc(F)c(C(F)(F)F)c3)c(NC3CCC(N)CC3)c12 (centres unmarked),0.4 µM
3,Cc1nn(C)c2ncc(C(=O)NC(=O)Nc3ccc(F)c(C(F)(F)F)c3)c(N(C)C3CCN(C)C3)c12 (centres unmarked),0.4 µM
4,Cc1nn(C)c2ncc(C(=O)NC(=O)Nc3ccc(F)c(C(F)(F)F)c3)c(NCC34CCCN3CCC4)c12,10 µM
5,Cc1nn(C)c2ncc(C(=O)NC(=O)Nc3ccc(F)c(C(F)(F)F)c3)c(N3CCN(CCO)CC3)c12,2 µM
6,Cc1nn(C)c2ncc(C(=O)NC(=O)Nc3cccc(-c4nccs4)c3)c(N3CCN(C)CC3)c12 [Compound 78],3 µM
7,Cc1nn(C)c2ncc(C(=O)NC(=O)Nc3ccc(F)c(C(F)(F)F)c3)c(N3CCC(N(C)C)C3)c12 (centres unmarked),1.2 µM
8,Cc1nn(C)c2ncc(C(=O)NC(=O)Nc3cc(O)cc(C(F)(F)F)c3)c(N3CCN(C)CC3)c12 [Compound 89],4 µM
9,Cc1nn(C)c2ncc(C(=O)NC(=O)Nc3ccc(O)c(C(F)(F)F)c3)c(N3CCN(C)CC3)c12 [Compound 87],4 µM
10,Cc1nn(C)c2ncc(C(=O)NC(=O)Nc3ccc(F)c(C(F)(F)F)c3)c(N(C)CCN(C)C)c12,2 µM
11,Cc1nn(C)c2ncc(C(=O)NC(=O)Nc3ccc(F)c(C(F)(F)F)c3)c(NCCCN(C)C)c12,10 µM
